Test results from patent US20200385439A1.

By UniProt entry, the sequences of proteins in these tests, tags left out. Where a name states a change or a piece, a line headed by the entry shows the natural chain unless it says otherwise.
UniProt P50391: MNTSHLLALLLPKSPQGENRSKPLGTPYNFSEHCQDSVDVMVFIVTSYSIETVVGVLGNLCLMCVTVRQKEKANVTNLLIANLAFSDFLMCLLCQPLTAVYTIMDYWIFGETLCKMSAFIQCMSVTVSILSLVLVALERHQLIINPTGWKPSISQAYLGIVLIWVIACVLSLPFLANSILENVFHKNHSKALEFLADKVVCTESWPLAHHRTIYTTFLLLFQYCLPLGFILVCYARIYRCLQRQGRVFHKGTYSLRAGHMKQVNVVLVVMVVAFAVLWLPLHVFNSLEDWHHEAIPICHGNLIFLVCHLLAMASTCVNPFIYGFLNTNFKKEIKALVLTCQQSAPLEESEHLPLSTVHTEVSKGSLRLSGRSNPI

Target: human Y4 receptor (human) (UniProt P50391)
Test: cell-based or functional assay

EC50, cAMP assay (LANCE) on receptor-expressing cells: 137 nM
Substance: PYY3-36 (from UniProt P10082 31-64) (peptide)
